Measurements taken from paper PMC11648915, “Identification and development of TRPM4 antagonists to counteract neuronal excitotoxicity” (iScience, 2024).

By UniProt entry, the sequences of proteins in these tests, tags left out.
UniProt Q9NZQ8, whole entry: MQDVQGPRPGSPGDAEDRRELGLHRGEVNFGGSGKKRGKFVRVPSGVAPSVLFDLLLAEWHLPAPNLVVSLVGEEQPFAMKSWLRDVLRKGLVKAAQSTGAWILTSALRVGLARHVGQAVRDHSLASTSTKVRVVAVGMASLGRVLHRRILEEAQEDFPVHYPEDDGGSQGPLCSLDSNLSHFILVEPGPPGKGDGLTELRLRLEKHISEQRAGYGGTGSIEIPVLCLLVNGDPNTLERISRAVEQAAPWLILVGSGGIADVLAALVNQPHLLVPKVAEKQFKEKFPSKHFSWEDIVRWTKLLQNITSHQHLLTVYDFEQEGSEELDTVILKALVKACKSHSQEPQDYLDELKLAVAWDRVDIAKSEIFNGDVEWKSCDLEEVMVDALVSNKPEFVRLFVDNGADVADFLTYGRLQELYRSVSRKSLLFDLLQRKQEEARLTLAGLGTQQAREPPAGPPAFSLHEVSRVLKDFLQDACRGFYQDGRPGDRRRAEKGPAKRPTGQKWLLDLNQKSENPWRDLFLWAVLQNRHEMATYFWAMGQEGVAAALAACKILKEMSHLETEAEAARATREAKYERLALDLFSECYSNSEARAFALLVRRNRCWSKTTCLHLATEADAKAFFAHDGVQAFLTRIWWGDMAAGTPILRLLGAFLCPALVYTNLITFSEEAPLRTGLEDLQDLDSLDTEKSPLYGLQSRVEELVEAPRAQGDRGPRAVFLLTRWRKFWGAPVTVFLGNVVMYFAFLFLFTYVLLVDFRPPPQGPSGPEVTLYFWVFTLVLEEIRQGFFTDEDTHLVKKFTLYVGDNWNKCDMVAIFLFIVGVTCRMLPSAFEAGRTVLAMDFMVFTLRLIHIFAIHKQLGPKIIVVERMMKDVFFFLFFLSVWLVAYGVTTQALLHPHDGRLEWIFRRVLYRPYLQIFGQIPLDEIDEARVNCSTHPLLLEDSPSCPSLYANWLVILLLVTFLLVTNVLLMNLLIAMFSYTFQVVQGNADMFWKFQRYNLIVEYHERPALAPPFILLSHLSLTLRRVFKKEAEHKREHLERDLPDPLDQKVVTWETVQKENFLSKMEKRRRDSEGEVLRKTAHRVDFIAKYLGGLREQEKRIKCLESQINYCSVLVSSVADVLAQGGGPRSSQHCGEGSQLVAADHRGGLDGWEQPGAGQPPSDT
UniProt Q8TD43, whole entry: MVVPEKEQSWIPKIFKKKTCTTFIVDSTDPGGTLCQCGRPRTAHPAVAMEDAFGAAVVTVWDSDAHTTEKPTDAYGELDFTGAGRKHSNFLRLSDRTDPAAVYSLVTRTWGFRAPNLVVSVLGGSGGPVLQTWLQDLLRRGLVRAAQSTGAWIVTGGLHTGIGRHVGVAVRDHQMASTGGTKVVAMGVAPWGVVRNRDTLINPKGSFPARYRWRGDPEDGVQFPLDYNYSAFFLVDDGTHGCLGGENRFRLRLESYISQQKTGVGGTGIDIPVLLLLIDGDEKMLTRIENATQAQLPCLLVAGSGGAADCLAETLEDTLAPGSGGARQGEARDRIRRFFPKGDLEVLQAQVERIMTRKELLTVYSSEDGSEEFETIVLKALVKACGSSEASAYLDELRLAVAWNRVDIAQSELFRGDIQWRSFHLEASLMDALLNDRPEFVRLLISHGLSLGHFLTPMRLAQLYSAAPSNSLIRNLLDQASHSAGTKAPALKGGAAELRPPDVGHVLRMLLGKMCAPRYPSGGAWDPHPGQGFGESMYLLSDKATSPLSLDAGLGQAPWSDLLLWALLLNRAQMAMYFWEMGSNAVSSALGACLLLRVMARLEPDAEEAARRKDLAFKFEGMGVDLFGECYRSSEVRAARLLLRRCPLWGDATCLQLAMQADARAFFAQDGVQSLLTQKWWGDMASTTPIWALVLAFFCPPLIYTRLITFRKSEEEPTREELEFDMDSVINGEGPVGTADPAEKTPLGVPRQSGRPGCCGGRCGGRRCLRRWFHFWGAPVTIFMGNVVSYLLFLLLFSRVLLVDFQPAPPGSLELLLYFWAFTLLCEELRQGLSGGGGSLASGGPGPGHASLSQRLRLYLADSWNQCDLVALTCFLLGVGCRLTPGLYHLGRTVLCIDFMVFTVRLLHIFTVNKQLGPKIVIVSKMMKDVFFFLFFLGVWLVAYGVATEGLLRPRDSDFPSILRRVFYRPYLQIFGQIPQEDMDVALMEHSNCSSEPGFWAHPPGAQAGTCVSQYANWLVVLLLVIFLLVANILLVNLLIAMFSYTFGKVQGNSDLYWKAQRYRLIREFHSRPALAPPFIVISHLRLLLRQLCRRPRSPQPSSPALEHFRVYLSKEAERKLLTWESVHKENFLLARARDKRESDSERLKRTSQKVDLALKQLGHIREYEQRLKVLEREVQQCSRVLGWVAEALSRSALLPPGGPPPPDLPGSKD

Experiments:
[1] = target: human TRPM5 (Homo sapiens, UniProt Q9NZQ8); assay: QPatch automated patch clamp on TRPM5-expressing HEK293 cells; settings: read-out: TRPM5 IC50, hsTRPM5-expressing HEK293 cells
[2] = target: human TRPM4 (Homo sapiens, UniProt Q8TD43); assay: QPatch automated patch clamp on TRPM4-expressing HEK293 cells; type: cell-based; settings: read-out: TRPM4 IC50, hsTRPM4-expressing HEK293 cells
[3] = tested on: primary mouse neuronal cultures; assay: Glutamate-induced excitotoxicity assay (RealTime-Glo viability); settings: 5 μM

Row | IC50 [1] | Structure (SMILES) | IC50 [2] | Compound toxicity in neuronal cultures [3]
1 | 18.3 µM | Cc1ccc(-c2ccccc2NCc2ccccn2)s1 | 4.56 µM | –
2 | 3.87 µM | Cc1ccc(-c2ccccc2NCC2CCOCC2)s1 | 1.13 µM | observed toxicity
